The text below walks through data of patent US7041461B2 (H. Lundbeck A/S, priority 1998, dated 2006).

Protein sequences, listed by entry. Tags and fused reporters are not part of them. Lines headed by an entry give the natural chain unless they say otherwise; changes in a name come on top. Residues count along the entry.
UniProt Q9EP86: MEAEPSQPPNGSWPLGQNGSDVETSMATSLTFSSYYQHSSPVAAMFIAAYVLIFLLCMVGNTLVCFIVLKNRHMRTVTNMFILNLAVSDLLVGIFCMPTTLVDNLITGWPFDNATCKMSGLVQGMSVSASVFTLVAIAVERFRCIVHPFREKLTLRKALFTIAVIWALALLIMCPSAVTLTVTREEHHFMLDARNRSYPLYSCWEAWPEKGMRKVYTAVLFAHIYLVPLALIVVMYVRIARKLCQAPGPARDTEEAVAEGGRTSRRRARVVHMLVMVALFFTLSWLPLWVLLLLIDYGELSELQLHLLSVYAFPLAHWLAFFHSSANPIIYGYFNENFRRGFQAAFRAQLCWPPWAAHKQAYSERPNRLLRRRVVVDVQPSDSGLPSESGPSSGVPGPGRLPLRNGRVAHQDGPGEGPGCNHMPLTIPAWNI
UniProt Q9Y5X5, 103-522: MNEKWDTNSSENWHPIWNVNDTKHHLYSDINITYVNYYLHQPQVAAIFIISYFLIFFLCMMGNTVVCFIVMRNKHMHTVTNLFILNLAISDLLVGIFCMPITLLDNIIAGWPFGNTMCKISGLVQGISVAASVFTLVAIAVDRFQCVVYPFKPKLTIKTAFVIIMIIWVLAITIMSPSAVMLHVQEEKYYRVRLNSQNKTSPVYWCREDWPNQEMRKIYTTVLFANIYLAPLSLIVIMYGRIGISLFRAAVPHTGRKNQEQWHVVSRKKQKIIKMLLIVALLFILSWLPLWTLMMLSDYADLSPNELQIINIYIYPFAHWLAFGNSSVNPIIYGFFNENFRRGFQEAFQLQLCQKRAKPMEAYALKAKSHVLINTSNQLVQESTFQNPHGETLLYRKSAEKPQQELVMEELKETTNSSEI

In assay [1] the target is T1, cloned rat NPFF1 receptor (Rattus norvegicus, UniProt Q9EP86).
T1 construct: expressed in transfected cells; host or cells: COS-7 cells, transient; membranes
The assay can be described thus: Radioligand binding to cloned rat NPFF1 receptor, membranes of transiently transfected COS-7 cells. As to conditions: competition of [125I]D-Tyr-NPFF binding; transiently transfected COS-7 membranes; read-out: pKi for cloned rat NPFF1 receptor binding in COS-7 cells, MEAN (converted). The method, then: Transfected cells from culture flasks are scraped into 5 ml of 20 mM Tris-HCl, 5 mM EDTA, pH 7.5, and lysed by sonication. The cell lysates are centrifuged at 1000 rpm for 5 min. at 4° C., and the supernatant is centrifuged at 30,000× g for 20 min. at 4° C. […] Optimal membrane suspension dilutions, defined as the protein concentration required to bind less than 10% of the added radioligand, […], unlabeled compounds, and binding buffer to a final volume of 250 μl. In equilibrium saturation binding assays membrane preparations are incubated in the presence of increasing concentrations of [^3H]-labeled compound.
Competition assay: 50 pM radioligand, 10–12 points. Binding reaction mixtures are incubated for 2 hr at 25° C., and the reaction stopped by filtration through a double layer of GF filters treated with 0.1% polyethyleneimine, using a cell harvester. Wash buffer: 50 mM Tris-HCl, 0.1% BSA. Radioactivity may be measured by scintillation counting and data are analyzed by a computerized non-linear regression program. Non-specific binding is defined as the amount of radioactivity remaining after incubation of membrane protein in the presence of 1 μM final concentration […]. Protein concentration may be measured by the Bradford method using Bio-Rad Reagent, with bovine serum albumin as a standard. […]

The target of another assay is T2, NPFF2 (hNPFF2) (Homo sapiens, UniProt Q9Y5X5).
T2 construct: BO89, was determined to be a full length clone with no point mutations; expressed in transfected cells; host or cells: Xenopus laevis oocytes injected with synthetic mRNA
The assay can be described thus: Voltage-clamp electrophysiology in Xenopus oocytes expressing NPFF2 (NPFF-like) and chimeric Gαq/z. The class given is cell-based. Conditions: 1 μM, oocytes with NPFF2 (NPFF-like) mRNA and Gαq/z, −80 mV. As to the method:
Electrophysiological responses in voltage-clamped oocytes expressing NPFF2 mRNA. […] Oocytes were clamped at a holding potential of −80 mV.
For expression of NPFF2, mRNA transcripts were generated as described for NPFF1, using PCR products from ligation reactions or linearized DNA from B089 as DNA templates. Oocytes were injected with 5–50 ng NPFF2 mRNA and incubated as previously described.
(§1) Oocytes were harvested from Xenopus laevis and injected with mRNA transcripts as previously described (Quick and Lester, 1994; Smith et al., 1997). […] Three to eight hours prior to recording, oocytes were injected with 500 pg Gαq/z mRNA in order to observe coupling to Ca^++ activated Cl^− currents. Dual electrode voltage clamp (Axon Instruments Inc.) was performed using 3 M KCl-filled glass microelectrodes having resistances of 1–2 Mohm. Unless otherwise specified, oocytes were voltage clamped at a holding potential of −80 mV. During recordings, oocytes were bathed in continuously flowing (1–3 ml/min) medium containing 96 mM NaCl, 2 mM KCl, 1.8 mM CaCl2, 1 mM MgCl2, and 5 mM HEPES, pH 7.5 (ND96). Drugs were applied either by local perfusion from a […] glass capillary tube fixed at a distance of 0.5 mm from the oocyte, or by switching from a series of gravity fed perfusion lines.

Another assay deals with T3, SNORF2 (NPFF1) (Rattus norvegicus, UniProt Q9EP86).
T3 construct: from linearized plasmids or PCR products containing the complete coding region of the genes; expressed in transfected cells; host or cells: Xenopus laevis oocytes injected with synthetic RNA
Briefly: Voltage-clamp electrophysiology in Xenopus oocytes expressing SNORF2 (NPFF1) and chimeric Gαq/z. Conditions: 10 μM; oocytes with SNORF2 and Gαq/z. The class given is cell-based. The method, then: as §1
Heterologous expression of GPCRs in Xenopus oocytes has been widely used to determine the identity of signaling pathways activated by agonist stimulation (Gundersen et al., 1983; Takahashi et al., 1987). Activation of the phospholipase C (PLC) pathway is assayed by applying test compound in ND96 solution to oocytes previously injected with mRNA for the mammalian receptor and observing inward currents at a holding potential of −80 mV. […]

Each structure is given as a SMILES string.

In the case of `CSCC[C@H](NC(=O)[C@@H](N)Cc1ccccc1)C(=O)N[C@@H](CCCNC(=N)N)C(=O)N[C@@H](Cc1ccccc1)C(N)=O` [FMRFa], the Ki in assay [1] was 3.3 nM. Also, the inward current response result at NPFF2 (hNPFF2) is given as “No activity was observed”.
In the case of `N=C(N)NCCC[C@H](NC(=O)[C@H](CCC(N)=O)NC(=O)[C@@H]1CCCN1)C(=O)N[C@@H](Cc1ccccc1)C(N)=O` [PQRFa], in assay [1], the Ki is 6.58 nM. Besides, the inward current response result at SNORF2 (NPFF1) was “elicited responses”; at NPFF2 (hNPFF2) (listed as PGRF-amide) it was “smaller”; on NPFF2 (hNPFF2) (listed as PQRF-amide), “activated similar inward currents”.
